IC50 data for one compound are collected here from US8338450B2, “Compounds as dipeptidyl peptidase IV (DPP IV) inhibitors” (Lupin Limited, priority 2007, dated 2012).

Chains of the proteins cited; added tags and fusions are not shown.
UniProt P27487, whole entry: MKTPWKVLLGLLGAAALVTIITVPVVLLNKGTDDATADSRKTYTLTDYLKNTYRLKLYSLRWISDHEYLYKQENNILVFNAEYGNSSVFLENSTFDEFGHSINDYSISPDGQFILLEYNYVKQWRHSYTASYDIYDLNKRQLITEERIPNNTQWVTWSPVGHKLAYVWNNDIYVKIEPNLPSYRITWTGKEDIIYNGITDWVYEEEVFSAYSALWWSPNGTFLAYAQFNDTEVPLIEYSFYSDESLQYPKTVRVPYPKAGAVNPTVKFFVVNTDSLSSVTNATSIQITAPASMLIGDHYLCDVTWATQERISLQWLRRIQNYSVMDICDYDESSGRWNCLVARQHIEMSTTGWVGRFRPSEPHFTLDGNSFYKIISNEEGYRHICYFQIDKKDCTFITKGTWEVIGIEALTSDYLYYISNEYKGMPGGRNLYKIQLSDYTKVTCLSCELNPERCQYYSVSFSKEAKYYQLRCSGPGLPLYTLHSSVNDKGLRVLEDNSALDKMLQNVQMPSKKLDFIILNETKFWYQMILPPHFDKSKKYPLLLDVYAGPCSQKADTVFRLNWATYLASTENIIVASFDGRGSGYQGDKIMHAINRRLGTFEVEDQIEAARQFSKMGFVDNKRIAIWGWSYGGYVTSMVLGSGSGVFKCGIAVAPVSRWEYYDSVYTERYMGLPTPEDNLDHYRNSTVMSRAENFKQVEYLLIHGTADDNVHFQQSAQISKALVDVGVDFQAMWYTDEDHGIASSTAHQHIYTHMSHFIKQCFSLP

pIC50: −log10 of the molar value.

For the assay, the target named is human recombinant DPP-IV (Homo sapiens, UniProt P27487). As to the kind of experiment: Inhibition of human recombinant DPP-IV (Gly-Pro-AMC hydrolysis, fluorometric). The assay is classed as biochemical. Conditions: 50 μM Gly-Pro-AMC, 30 min at 30° C., tested form: trifluoroacetic acid salt. As for the experimental part:
Inhibition of Human Recombinant DPP-IV
The proteolytic activity of human recombinant DPP-IV was determined by following the hydrolysis of Gly-Pro-7-amino-4-methylcoumarin (Gly-Pro-AMC) and the fluorometric quantitation of the liberated AMC. Assays were routinely carried out in 96-well flat-bottom black microwell plates. The reaction mixture (100 μl) contained 10 ng of human recombinant DPP-IV enzyme (produced in-house or procured from R&D Systems, USA) in the assay buffer (25 mM Tris-HCl, pH 7.4, 140 mM NaCl, 10 mM KCl and 0.1 mg/ml BSA) and 50 μM Gly-Pro-AMC. After incubation of assay plates at 30° C. for 30 min, the hydrolysis of Gly-Pro-AMC was monitored in a fluorescence microplate reader (Molecular Devices SpectraMax M5), with excitation and emission wavelengths set at 360 nm and 460 nm, respectively.
The inhibition of DPP-IV activity by test compounds was routinely performed by preincubating the enzyme with test compound (10 and 100 nM for primary screening and 8 concentrations from 0.1 to 1000 nM for the dose-response study) or vehicle (0.01% DMSO) for 15 min at 30° C., in a total volume of 90 μl. Test compounds were dissolved in DMSO at a concentration of 10 mM and serially diluted further in assay buffer. […]
The results are expressed as percent inhibition of the enzyme activity relative to vehicle controls. […]

Turning to `N#C[C@@H]1CCCN1C(=O)C(N)C1CC2CCCC(C1)N2C(=O)c1ccc(C(F)(F)F)cc1` (stereo partly shown), the pIC50 was 8.27.
